Laboratory results taken from PubChem BioAssay AID651995 (Sanford-Burnham Center for Chemical Genomics, 2013).
This is a selection; strong and weak results do not stand in their true shares. Activity calls are given as the source filed them.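 The calls were made as follows: active = mean inhibition above about 25% (limit read from the data); inactive = the rest.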

Assay: Wnt3a reporter signal inhibition, confirmation, counter-screen for Gli-SUFU antagonist project, Wnt-LIGHT cells, luminescence, single concentration (AID 651995)
Settings: Wnt3a-driven luciferase reporter, at 6.25 µM, stronger effect = higher value

Row | Compound | inhibition
1 | CC1=C2N=C(C=C3N=C(C(C)=C4[N-][C@@](C)([C@@H]5N=C1[C@](C)(CCC(=O)NC[C@@H](C)OP(=O)([O-])O[C@H]1[C@@H](O)[C@@H](n6cnc7cc(C)c(C)cc76)O[C@@H]1CO)[C@H]5CC(N)=O)[C@@](C)(CC(N)=O)[C@@H]4CCC(N)=O)[C@@](C)(CC(N)=O)[C@@H]3CCC(N)=O)C(C)(C)[C@@H]2CCC(N)=O.[C-]#N.[Co+3] | active: 45.2%
